Assay: in vivo
Settings: mouse

For COC1=C(OC)C(=O)C(CCCCCCCCCCO)=C(C)C1=O [idebenone, 6-(10-hydroxydecyl)-2,3-dimethoxy-5-methyl-1,4-benzoquinone], the LD50 was > 10000 mg/kg.

— patent publication EP0629400B1, “Idebenone compositions for treating Alzheimer's disease” (TAKEDA CHEMICAL INDUSTRIES, LTD., priority 1993, dated 1994)
